The term EC50 denotes the concentration needed to bring the measured effect to its halfway point. Higher therefore signals a need for much substance.

Counter-ions that a name gives are not always drawn.

For this assay, the target named is 5-hydroxytryptamine receptor 4 (Rattus norvegicus) (UniProt Q62758). Kind of assay: Agonist activity against 5-HT4 receptor in rat esophageal muscularis mucosae.

As for `CCN(CC)CCNC(=O)c1cc(Cl)c(N)cc1OC` [4-amino-5-chloro-N-[2-(diethylamino)ethyl]-2-methoxy-benzamide;hydrochloride], the EC50 is 794 nM.

The record behind these values is BindingDB's records for doi:10.7270/Q23J3G57 (n/a, 1994).
